Data on two substances can be found in patent US20240199722A1, “NANOPLATFORM FOR TARGETING MACROPHAGE AND COMPOSITION FOR PREVENTION OR TREATMENT OF METASTATIC CANCER” (SEOUL NATIONAL UNIVERSITY R&DB FOUNDATION, priority 2021, published 2024).

The target of series [1] is T1, CD206 (Mus musculus, UniProt Q61830).
T1 construct: primary macrophages (M-BMM) differentiated into M-SCF, cells with high CD206 expression; endogenous in cells; host or cells: primary macrophages GM-BMM (low CD206) and M-BMM (high CD206); 4T1 mouse breast cancer cells as comparison
T1 sequence (Q61830 20-1456): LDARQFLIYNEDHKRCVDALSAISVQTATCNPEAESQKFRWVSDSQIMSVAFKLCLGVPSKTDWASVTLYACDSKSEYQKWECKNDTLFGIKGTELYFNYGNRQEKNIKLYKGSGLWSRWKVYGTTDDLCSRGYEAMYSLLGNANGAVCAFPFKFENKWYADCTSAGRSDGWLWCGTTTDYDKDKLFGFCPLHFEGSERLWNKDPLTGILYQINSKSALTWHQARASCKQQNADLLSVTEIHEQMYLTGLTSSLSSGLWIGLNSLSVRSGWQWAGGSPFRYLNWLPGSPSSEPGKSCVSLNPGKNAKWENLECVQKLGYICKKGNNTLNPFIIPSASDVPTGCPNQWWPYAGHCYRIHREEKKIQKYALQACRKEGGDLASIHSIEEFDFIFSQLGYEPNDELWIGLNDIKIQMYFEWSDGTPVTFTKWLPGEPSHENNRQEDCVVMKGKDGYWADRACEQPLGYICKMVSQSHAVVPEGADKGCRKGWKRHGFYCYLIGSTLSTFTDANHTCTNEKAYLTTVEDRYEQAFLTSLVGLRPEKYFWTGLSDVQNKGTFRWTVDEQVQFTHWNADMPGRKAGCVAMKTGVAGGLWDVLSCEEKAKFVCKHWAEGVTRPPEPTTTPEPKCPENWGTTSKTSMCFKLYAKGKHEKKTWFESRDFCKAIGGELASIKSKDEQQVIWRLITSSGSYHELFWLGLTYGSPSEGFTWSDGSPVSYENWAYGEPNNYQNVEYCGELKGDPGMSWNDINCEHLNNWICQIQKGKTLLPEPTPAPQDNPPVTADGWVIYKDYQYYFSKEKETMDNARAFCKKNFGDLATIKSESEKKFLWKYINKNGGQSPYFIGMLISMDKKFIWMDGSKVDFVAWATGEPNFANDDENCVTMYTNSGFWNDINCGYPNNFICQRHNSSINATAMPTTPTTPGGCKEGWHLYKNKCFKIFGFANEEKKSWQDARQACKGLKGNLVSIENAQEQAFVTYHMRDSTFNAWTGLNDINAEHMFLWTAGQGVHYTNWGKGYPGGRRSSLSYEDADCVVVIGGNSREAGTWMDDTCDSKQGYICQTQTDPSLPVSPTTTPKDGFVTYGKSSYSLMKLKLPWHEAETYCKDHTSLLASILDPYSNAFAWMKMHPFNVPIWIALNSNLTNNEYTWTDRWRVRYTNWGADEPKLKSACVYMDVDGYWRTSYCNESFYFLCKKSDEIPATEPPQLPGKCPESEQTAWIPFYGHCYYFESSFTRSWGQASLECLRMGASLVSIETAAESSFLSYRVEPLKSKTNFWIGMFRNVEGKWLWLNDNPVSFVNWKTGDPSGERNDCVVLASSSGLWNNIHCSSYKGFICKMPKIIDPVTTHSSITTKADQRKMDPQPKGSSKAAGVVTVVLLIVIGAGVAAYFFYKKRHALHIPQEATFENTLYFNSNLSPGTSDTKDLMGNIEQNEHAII
Kind of series: In vitro uptake of the nanoplatform in 4T1, GM-BMM and M-BMM cells (specific target image, FIG. 4). In kind it is cell-based. The protocol: An experiment was performed to confirm whether HSA-ADIBO conjugated with a mannosyl group, as obtained in Preparation Example 1 was targeted to tumor tissue.
The mouse breast cancer cell line 4T1, primary macrophages (GM-BMM) differentiated into GM-SCF, macrophages with relatively low CD206 expression, and primary macrophages (M-BMM) differentiated into M-SCF, cells with high CD206 expression, were prepared, respectively, and then the nanoplatform obtained in Preparation Example 1 was infused.
Referring to FIG. 4, it was confirmed that the uptake of the nanoplatform was low in cells with low CD206 expression, and the uptake of the nanoplatform was high in cells with high CD206 expression, confirming that the nanoplatform according to the present disclosure is capable of targeting CD206.

In series [2] the test system is Kupffer cells. Kind of series: In vivo biodistribution by PET or SPECT after tail vein administration to normal mice (FIG. 6, 7). From the text: An albumin-based nanoplatform, an albumin-based nanoplatform conjugated with a mannosyl group, and an albumin-based nanoplatform conjugated with a galactosyl group were each administered into a tail vein of mice (normal group), and changes in biodistribution over each of time were observed using PET (positron emission tomography) or SPECT (single-photon emission computed tomographt), and the results are shown in FIG. 6.
In addition, in order to clearly confirm the morphology, the liver tissue was sectioned to obtain a fluorescence image, and the results was shown in FIG. 7. A very clear image that was identical to the actual IHC result was able to be confirmed, and this was an image obtained by removing the liver after direct injection into an animal, which was not an ex-vivo result, and it is meaningful to confirm the actual action of mannosyl and galactosyl groups in the body.

The test system of series [3] is lung metastasis. Nature of the series: Nuclear medicine imaging in Low meta and High meta models, cancer cells injected into tail vein (FIG. 9). It counts as in vivo, mice. The following applies: isotopically labeled MSA. On the procedure:
In addition, in order to directly show the correlation between the degree of uptake of the metastatic site and the degree of metastasis of the MSA thus constructed, a model wherein cancer cells were directly injected into a tail vein of mice to directly inject the cancer cells into the lungs and immediately cause metastasis, rather than using the existing model of natural metastasis from the primary cancer to the lungs, were prepared. Low meta (low metastasis) and High meta (high metastasis) models were prepared by varying the number of injected cancer cells to obtain nuclear medicine images by injecting isotopically labeled MSA, and the results of nuclear medicine quantification were shown in FIG. 9.

The test system of series [4] is macrophages at lung metastatic site. Nature of the series: Early diagnosis of cancer metastasis in the 4T1-luc model: FDG-PET versus 111In-MSA-FL SPECT/CT (FIG. 8). In kind it is in vivo, mouse. The source says:
In order to verify the possibility of early diagnosis of cancer metastasis of the albumin-based nanoplatform conjugated with the mannosyl group, a model that may represent cancer metastasis was reproduced and confirmed through tissue staining whether it could actually reflect metastasis.
In order to compare the albumin-based nanoplatform for targeting macrophages (MSA) obtained in Preparation Example 1 with the diagnostic method using FDG, which has been previously used in nuclear medicine imaging, 4T1-luc, wherein a fluorescent gene was introduced into the breast cancer cell line 4T1, was prepared, and cancer modeling was performed by injecting it into the femur of a mouse. This animal model is known to naturally cause metastasis to secondary organs after transplanting cancer cells into mice, and is especially known to cause metastasis to the lung area, similar to the pattern of existing breast cancer.
A mixture of two compounds was injected into 7, 14, 21, and 28 days-age mice after modeling, and FDG-PET images and ^111In-MSA-FL (MSA to which indium isotope and fluorescence were introduced) SPECT/CT images were obtained, and shown in FIG. 8(a).
Very small volume macrophage entry sites or metastasis sites that could not be identified even with the previously widely used modalities MRI and CT could be identified with very high sensitivity using nuclear medicine imaging.
As a result, the diagnostic method using the albumin-based nanoplatform (MSA) for targeting macrophages was able to diagnose cancer metastasis on Day 21, but the diagnostic method using FDG was able to diagnose metastasis on Day 28, and it was confirmed that the diagnostic method using nanoplatform of the present disclosure can diagnose cancer metastasis earlier than the prior art. In particular, it was shown that the degree of metastasis can be reflected and expressed through nuclear medicine imaging and quantification.

In series [5] the test system is CD206 target macrophage. Nature of the series: Uptake and macrophage phenotype shift in M1- and M2-polarized macrophages (FIG. 5). In kind it is cell-based. From the text:
In addition, the results of an experiment to confirm the activity targeting inflammatory type of macrophage of the albumin-based nanoplatform for targeting macrophages according to the present disclosure were shown in FIG. 5.
(M1 polarization, macrophages with low expression of CD206) and MSA^+ cells (M2 polarization, macrophages with high expression of CD206), respectively.
In addition, the MHCII^+, iNOS^+, and TNFα^+ data in FIG. 5 are indicators of the activity of M1-type of macrophages, and when the albumin platform into which mannose was introduced to M2-type macrophages was treated at different concentrations, it was confirmed that the expression level of the indicators showing M1 activity in M2-type of macrophages increased (MSA induces macrophage phenotype shift).

With “MSA: HSA-ADIBO click-conjugated with Man-N3 (mannosyl groups), optionally with FNR648-N3 and/or radiolabelled NOTA-N3; Preparation Example 1”, the entries for the “uptake of the nanoplatform” value in series [1] (cells with high CD206 expression) and in series [1] (cells with low CD206 expression) were “high” and “low”, respectively. Besides, the biodistribution over time entry in series [2] was “strong liver intake by Kupffer cells was confirmed over a long time”. In series [3], the “relation of intake to degree of metastasis” value was “there was a correlation between intake and degree of metastasis”. The “time at which cancer metastasis could be diagnosed” value in series [4] (day after modeling) was found to be 21 days. Also, the “nuclear medicine signal/image in the lung area before metastasis” value in series [4] (imaging on days 7, 14, 21, 28) is “very clear images in the lung area on Day 21”. Moreover, the “uptake at the metastatic site, statistical significance” value in series [4] (quantification FIG. 8(b)) is given as “significant difference at each week”. Also, in series [5] (M2-type macrophages treated at different concentrations), the “expression level of indicators of M1 activity (MHCII+, iNOS+, TNFα+)” value is “increased”. In addition, the “uptake pattern according to MSA processing amount” value was “most cells ingested the added amount” in series [5] (MSA+ cells (M2 polarization, high expression of CD206)) and “selective uptake was not achieved” in series [5] (MSA- cells (M1 polarization, low expression of CD206)). Further, in series [5] (MSA+ cells, according to the amount added), the “MSA MFI, mean fluorescence intensity” value is recorded as “proportional to the amount added”.

Take “albumin-based nanoplatform conjugated with a galactosyl group: HSA-ADIBO click-conjugated with Gal-N3 (1-(2-Azidoethoxy)-beta-D-galactopyranose)”: the biodistribution over time result in series [2] is reported as “hepatobiliary excretion is shown through the gall bladder”.
